Literature values as cited in patent US8834942B2, “Enhanced absorption of oregano derived oils” (priority 2010, dated 2014).

Details: single emulsifier

In the case of “tocopheryl polyethylene glycol succinate”, the HLB value is given as “about 13”.
